{"sequences": {"note": "The chains behind the UniProt entries cited, without tags or fusion partners.", "UniProt O00255, whole entry": "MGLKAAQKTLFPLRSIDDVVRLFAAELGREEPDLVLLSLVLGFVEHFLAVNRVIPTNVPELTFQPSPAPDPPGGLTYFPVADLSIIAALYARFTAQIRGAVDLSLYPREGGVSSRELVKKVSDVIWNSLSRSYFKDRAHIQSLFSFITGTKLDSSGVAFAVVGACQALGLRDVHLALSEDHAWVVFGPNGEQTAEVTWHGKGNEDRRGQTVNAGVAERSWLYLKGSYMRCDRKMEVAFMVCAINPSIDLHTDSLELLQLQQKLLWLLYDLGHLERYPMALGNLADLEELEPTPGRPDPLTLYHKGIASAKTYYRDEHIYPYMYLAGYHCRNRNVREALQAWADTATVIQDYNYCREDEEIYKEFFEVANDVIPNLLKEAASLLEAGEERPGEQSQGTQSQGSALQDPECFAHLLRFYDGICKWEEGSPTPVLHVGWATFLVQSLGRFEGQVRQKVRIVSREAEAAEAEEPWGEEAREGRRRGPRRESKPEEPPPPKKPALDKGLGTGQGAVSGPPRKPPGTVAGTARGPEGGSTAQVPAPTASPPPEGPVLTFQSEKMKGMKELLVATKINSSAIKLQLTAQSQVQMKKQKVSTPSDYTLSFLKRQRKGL"}, "source": "patent US10899738B2", "about": "(THE REGENTS OF THE UNIVERSITY OF MICHIGAN, priority 2016, dated 2021)", "biological_target": "menin protein (Homo sapiens (Human), UniProt O00255)", "conditions": "read-out: Menin Binding Affinity IC50", "protocol": "A fluorescence polarization (FP) competitive binding assay was used to determine the binding affinities of representative menin inhibitors. A FAM labeled fluorescent probe was designed and synthesized based on a MLL1 peptide (FAM-MM2). Equilibrium dissociation constant (Kd) value of FAM-MM2 to menin protein was determined from protein saturation experiments by monitoring the total fluorescence polarization of mixtures composed with the fluorescent probe at a fixed concentration and the protein with increasing concentrations up to full saturation. Serial dilutions of the protein were mixed with FAM-MM2 to a final volume of 200 μl in the assay buffer (PBS with 0.02% Bovine γ-Globulin and 4% DMSO. 0.01% Triton X-100 was added right before assays). Final FAM-MM2 concentration was 2 nM. Plates were incubated at room temperature for 30 minutes with gentle shaking to assure equilibrium.\nThe IC50, see Table 3, and Ki values of representative Compounds of the Disclosure were determined in a competitive binding experiment. Mixtures of 5 μl of the tested compounds in DMSO and 195 μl of preincubated protein/probe complex solution in the assay buffer were added into assay plates which were incubated at room temperature for 30 minutes with gentle shaking. […] FP values were measured as described above. IC50 values were determined by nonlinear regression fitting of the competition curves.", "data": [{"smiles": "N#Cc1ccc(OCCCN2CCC(C3(C4CCCC4)NCCc4ccccc43)CC2)cc1", "note": "(stereo not shown) [compound 27, 4-(3-(4-(1-cyclopentyl-1,2,3,4-tetrahydroisoquinolin-1-yl)piperidin-1-yl)propoxy)benzonitrile]", "values": [{"measurement": "IC50", "result": 0.071, "unit": "µM"}]}]}
